According to patent US20130096067A1, “DROSOPHILA TUMOR STEM CELL MODEL AND USES THEREOF” (priority 2011, published 2013):

Test system: Raf-1^gof intestinal tumors
Settings: in vivo
Note: test concentration or dose not given here.

With `CC1=C2C[C@H]3[C@@H](CC=C4C[C@@H](O)CC[C@@]43C)[C@@H]2CC[C@]12O[C@@H]1C[C@H](C)CN[C@H]1[C@H]2C` [cyclopamine] the “Fold (luciferase activity relative to DMSO controls)” value was 0.905 fold and the “Log2 (fold) of luciferase activity relative to DMSO controls” value was −0.144.
